From BindingDB's records for doi:10.1021/jm500956p (The University of Queensland, 2014)

Target: T1, C3a anaphylatoxin chemotactic receptor (Homo sapiens, UniProt Q16581)
T1 sequence (Q16581 whole entry): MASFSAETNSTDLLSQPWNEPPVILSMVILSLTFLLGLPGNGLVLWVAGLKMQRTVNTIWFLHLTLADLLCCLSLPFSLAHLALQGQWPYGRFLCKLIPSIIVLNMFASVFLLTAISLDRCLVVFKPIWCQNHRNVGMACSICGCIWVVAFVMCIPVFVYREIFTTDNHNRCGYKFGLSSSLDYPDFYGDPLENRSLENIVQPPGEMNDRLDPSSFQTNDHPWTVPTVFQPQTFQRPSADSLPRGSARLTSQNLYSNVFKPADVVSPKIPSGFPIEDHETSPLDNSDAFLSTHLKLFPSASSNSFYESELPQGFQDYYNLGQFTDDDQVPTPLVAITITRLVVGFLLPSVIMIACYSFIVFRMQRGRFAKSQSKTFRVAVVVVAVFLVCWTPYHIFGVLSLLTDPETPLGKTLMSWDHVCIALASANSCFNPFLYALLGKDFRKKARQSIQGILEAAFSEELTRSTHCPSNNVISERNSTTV
Assay: Antagonist activity against C3AR in HMDMs assessed as inhibition of C3a-induced intracellular calcium release by Fluo-3 AM dye based FLIPR assay
Summary of the method: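 Primary human monocyte-derived macrophages (CD14+ monocytes from donor buffy coat, differentiated 7 days with 100 ng/mL M-CSF) plated 5 × 10^4 cells/well overnight at 37 °C, loaded with 4 μM Fluo-3 AM for 1 h at 37 °C. Compounds preincubated 30 min before C3a (100 nM). Fluorescence (ex 495/em 520 nm) read ≥60 s. Duplicates per point, ≥3 experiments. IC50 from nonlinear concentration–response fit.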

SMILES: NC(N)=NCCC[C@H](NC(=O)c1ccc(C(c2ccccc2)c2ccccc2)o1)C(=O)O
- IC50: 2000 nM
